## Apparent affinities of Ab-95 variants for a coronavirus HR2 peptide

From the AlphaSeq antibody data of Engelhart et al. 2022 (doi:10.1038/s41597-022-01779-4), copy in the FLAb collection.

Target: peptide PDVDLGDISGINAS, taken from heptad repeat 2 (HR2) of SARS-CoV-2 spike.

Each scFv is VH, three GGGGS repeats, VL, as in the parent Ab-95, and differs from it in the CDRs of the light chain only.
VH: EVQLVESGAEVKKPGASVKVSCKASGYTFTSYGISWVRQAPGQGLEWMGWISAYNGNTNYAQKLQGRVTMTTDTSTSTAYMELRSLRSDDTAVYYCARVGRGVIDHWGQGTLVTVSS
VL: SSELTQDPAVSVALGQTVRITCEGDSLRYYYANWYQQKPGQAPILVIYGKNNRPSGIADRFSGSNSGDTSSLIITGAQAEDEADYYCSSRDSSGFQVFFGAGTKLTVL

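The starting antibody came from a phage panning campaign against this peptide. Library AAYL52 holds single substitutions and randomly drawn double and triple substitutions in the CDRs. In AlphaSeq, yeast of one mating type display the scFv and yeast of the other type display the target. The frequency of each diploid, read from paired DNA barcodes, reflects how well the two displayed proteins bind. A regression on co-assayed BCL2-family reference pairs converts the normalised counts of each replicate to an apparent Kd. The assay was run in three technical replicates.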

Variants are written as CDR1, CDR2 and CDR3 of the light chain (limits as in the source). Parent: EGDSLRYYYAN, GKNNRPS, SSRDSSGFQVF.
Values are apparent Kd, the geometric mean of the replicates that gave a signal; lower means stronger binding.
A pair that was not seen in any replicate is written "not detected"; this usually means weak binding, but a binder can also be missed.
In this assay the parent's reference entry averaged 200 nM; its copy inside this library read 180 nM.
Empty control strains, which show no peptide, gave a signal in 28% of pairings with library AAYL52; the median was 8.2 µM and 95% of these signals were weaker than 800 nM. No background was subtracted.

| CDR-L1 | CDR-L2 | CDR-L3 | Kd (apparent) | replicates with signal |
|---|---|---|---|---|
| LGDSLRYYYAN | GKKNRPH | SSRDSSGFQVF | 13 µM | 1/3 |
| EGDSSRYYYAN | GKNNRPS | SNRDSSGFAVF | 17 µM | 1/3 |
| EGDSLRYYGAN | GKNLRHS | SSRDSSGFQVF | 540 nM | 3/3 |
| EGDSLRYYYAN | PKNNRTS | SSRDKSGFQVF | 92 µM | 1/3 |
| EGDSLRYYYAN | QKNNFPS | SSRRSSGFQVF | 1.7 µM | 2/3 |
| EGDSLRYYYAN | GKNTPPS | SSRDSSRFQVF | 5.2 µM | 3/3 |
| EGDSCRYYYAN | GKNERPS | SSRDSSGAQVF | 47 µM | 1/3 |
| EGDSLRYYYAN | MKNNRPE | SSRDSSGFQVK | 120 µM | 2/3 |
| EGDSLRYYYAN | RKNNRPS | SSRDSSGFTTF | 2.8 µM | 1/3 |
| EGDSLRWYYAN | GKNNRPS | SSRDSSGFTVF | 2.0 µM | 1/3 |
| EKDSLRYYHAN | GKNNRPS | SSADSSGFQVF | 8.5 µM | 1/3 |
| EGDSLRQYYAN | GKNNRPS | SSRSSSGFQVN | 1.5 µM | 3/3 |
| EGDSLCYYYAN | GKNNCPS | SSRESSGFQVF | not detected | 0/3 |
| EGDSLRAYPAN | GKNNRPS | SYRDSSGFQVF | 250 nM | 3/3 |
| EGDSLRYYYAN | GKYWRAS | SSRDSSGFQVF | 14 µM | 2/3 |
| EPDSLRYYYAN | GTNNRPS | RSRDSSGFQVF | 72 µM | 1/3 |
| NSDSLRYYYAN | GKNNRPS | SSRDSSGFSVF | 2.1 µM | 2/3 |
| EGDSLRWYFAN | GYNNRPS | SSRDSSGFQVF | 3.4 µM | 2/3 |
| EGDSLRYYHAN | GKNNRPS | SSRDSSGAQVF | 48 nM | 3/3 |
| EGDSLRYYYAN | GKNNRPS | VSVDSSGFQMF | 200 nM | 3/3 |
| EGDSLNYYYAN | GKNNRPS | SERDSSGFQVF | 200 nM | 2/3 |
| EIDSLRYYYAN | GKNNRPS | SSRDSSGFPVR | 3.5 µM | 2/3 |
| EGDSERYYYAN | GKNRRPL | SSRDSSGFQVF | 27 µM | 3/3 |
| NGDSLRYYYAN | GKPNRPS | SSRDSSGFAVF | 4.3 µM | 3/3 |
| RGDSLRVYYAN | GKNNRPS | SSIDSSGFQVF | 490 nM | 3/3 |
| EGDSLRYYYAN | GGNVVPS | SSRDSSGFQVF | 150 nM | 3/3 |
| EGDTLRYYWAN | GINNRPS | SSRDSSGFQVF | 5.1 µM | 2/3 |
| EGDTLRYYYAK | GKNNRPS | SSRDSSGFQVI | not detected | 0/3 |
| EGDSLRYYYAN | GNNNRPQ | SSPDSSGFQVF | not detected | 0/3 |
| EGDSLRRYYAN | GKNNRPS | SSRNSSGFWVF | 5.4 µM | 3/3 |
| EGDSLRYYYAN | GKNNRPS | SSVDSSGFHGF | 500 nM | 1/3 |
| KGDSLRYYYAN | GKNNRPS | SSRESSGFQVV | 330 nM | 3/3 |
| EGSSLRYYYAN | GKNNVNS | SSRDSSGFQVF | 210 nM | 3/3 |
| EGDSLRYYYAN | GMNNRPS | VSRDSSHFQVF | not detected | 0/3 |
| ELDSLHYYYAN | GKNNRPS | YSRDSSGFQVF | 560 nM | 1/3 |
| ENDSLRYYYAN | GKNNRPS | VSRDSSGFQVF | 7.1 µM | 2/3 |
| EGDSLRYYYLN | GKNNVPS | SSRDSSGQQVF | 2.1 µM | 2/3 |
| EGDSLRYYYAN | GKKNRSS | ESRDSSGFQVF | not detected | 0/3 |
| YGDSLRYYYAN | DKNNHPS | SSRDSSGFQVF | 14 µM | 1/3 |
| IGDSLRYYYLN | GKNNRPS | SSRDSRGFQVF | 11 µM | 2/3 |
| WGTSLRYYYAN | GKNNRPS | SSRDSAGFQVF | 94 nM | 2/3 |
| EGDSLRYYYAY | GKNNMPS | SSWDSSGFQVF | not detected | 0/3 |
| EGDSLRYYYAN | GKNNRPS | SCRDSSCFQVF | 540 nM | 3/3 |
| EGDSLRYYYAN | GKNNRKS | SSRFSSGFQVN | not detected | 0/3 |
| HGDSLRHYYAN | GKNNRPS | SSRDSGGFQVF | 78 nM | 3/3 |
| EGDSLRYYYAN | GKNNDPS | SDRFSSGFQVF | 6.4 µM | 3/3 |
| EADSLRYYYAN | GWNNRHS | SSRDSSGFQVF | not detected | 0/3 |

Excerpt, the final 6 entries:

| CDR-L1 | CDR-L2 | CDR-L3 | Kd (apparent) | replicates with signal |
|---|---|---|---|---|
| EGDSLRYYYAY | GKNNMPS | SSWDSSGFQVF | not detected | 0/3 |
| EGDSLRYYYAN | GKNNRPS | SCRDSSCFQVF | 540 nM | 3/3 |
| EGDSLRYYYAN | GKNNRKS | SSRFSSGFQVN | not detected | 0/3 |
| HGDSLRHYYAN | GKNNRPS | SSRDSGGFQVF | 78 nM | 3/3 |
| EGDSLRYYYAN | GKNNDPS | SDRFSSGFQVF | 6.4 µM | 3/3 |
| EADSLRYYYAN | GWNNRHS | SSRDSSGFQVF | not detected | 0/3 |